The source of these data is patent publication CN101627111A.

The test concerns the target recombinant human TNF kept in transmembrane form on K2 (C480A) Sp2/0 cells (human), P01375. Nature of the test: cell-based or functional assay.

B1: CNTO 148 (golimumab) produced in C1083B YB2/0 cells (antibody, V domains shown)
VH: QVQLVESGGGVVQPGRSLRLSCAASGFIFSSYAMHWVRQAPGNGLEWVAFMSYDGSNKKYADSVKGRFTISRDNSKNTLYLQMNSLRAEDTAVYYCARDRGIAAGGNYYYYGMDVWGQGTTVTVSS
VL: not shown
modifications: here or on the partner: more than 80% of the Fc oligosaccharides not fucosylated
In the case of B1, the ADCC potency (specific lysis of K2 cells, EuTDA release) against CNTO 148 from mouse myeloma cells was 70 倍.
